Measured properties of organic chemicals

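OPERA's authors assembled the values from existing databases and did not measure them anew. A listed value is a point estimate from one report or more. Method, purity and exact conditions of the single measurements are not given. Where a salt, mixture or single isomer is drawn, the source does not say that exactly this form was tested. Unmarked limits or estimates from the upstream databases cannot be ruled out.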

The melting point is given in degrees Celsius. The boiling point refers to atmospheric pressure (760 mmHg), by the definition of the set. The octanol-water partition coefficient is given as log10; larger values mean a more lipophilic compound. Water solubility is log10 of mol/L, nominally at 25 °C; higher is more soluble. Vapor pressures (log10 mmHg) refer to near room temperature, 15 to 30 °C; higher is more volatile. Henry's law constant (air-water partitioning) is log10 of atm·m3/mol, nominally at 25 °C. The unbound fraction in human plasma runs from 0 (all bound) to 1 (all free). Intrinsic clearance (human, µL/min per 10^6 hepatocytes): higher is faster turnover, and 0 stands for none detected.

- CC(=O)OCC(C)(C)C=NCC1(C)CC(N=CC(C)(C)COC(C)=O)CC(C)(C)C1 (centres undefined): logP (octanol/water) 1.175; log vapor pressure -6.246 (log10 mmHg)
- COc1ccc(-c2ccc3cc(C(=O)O)ccc3c2)cc1C12CC3CC(CC(C3)C1)C2 [Adapalene]: logP (octanol/water) 8.6; log solubility -8.012 (log10 mol/L)
- COc1cc(NC(=O)CC(C)=O)c(OC)cc1Cl [4'-Chloro-2',5'-dimethoxyacetoacetanilide]: logP (octanol/water) 1.74; log solubility -2.979 (log10 mol/L); log vapor pressure -6.806 (log10 mmHg)
- CC(C(=O)c1ccc(Cl)cc1)C1CC1 (centres undefined) [1-(4-Chlorophenyl)-2-cyclopropylpropan-1-one]: melting point -63 °C; logP (octanol/water) 3.9; log solubility -3.775 (log10 mol/L); log vapor pressure -2.682 (log10 mmHg)
- CCCN(C)C [Dimethyl-N-propylamine]: melting point -61.58 °C; logP (octanol/water) 1.32; log vapor pressure 2.131 (log10 mmHg)
- CCN1CCCCC1 [Piperidine, 1-ethyl-]: log vapor pressure 0.959 (log10 mmHg); Henry's law constant -2.501 (log10 atm·m3/mol)
- CCC(=O)O[C@@H]1C[C@H]2CC[C@]1(C)C2(C)C [Isobornyl propanoate]: logP (octanol/water) 5; log solubility -4.026 (log10 mol/L); log vapor pressure -1.634 (log10 mmHg)
- C=CC(F)(F)C(F)(F)F [3,3,4,4,4-Pentafluorobut-1-ene]: logP (octanol/water) 3.06; log solubility -3.488 (log10 mol/L)
- CC[C@]12CC[C@@H]3C4=C(CC[C@H]3[C@@H]1CC[C@@H]2O)CC(OC)=CC4 [(17Beta)-13-Ethyl-3-methoxygona-2,5(10)-dien-17-ol]: logP (octanol/water) 5.705; log solubility -5.336 (log10 mol/L)
- COCc1ccc(COC)cc1 [1,4-Bis(methoxymethyl)benzene]: melting point -6.3 °C; log vapor pressure -1.973 (log10 mmHg)
- O=C(Cc1ccc(-c2ccccc2)cc1)OCC1CCCCC1: melting point 71.22 °C; log solubility -7.79 (log10 mol/L); log vapor pressure -6.678 (log10 mmHg)
- COC(=O)c1ccccc1C [Methyl 2-methylbenzoate]: log solubility -1.757 (log10 mol/L); log vapor pressure -1.014 (log10 mmHg)
- CC(C)(c1cc(Br)c(O)c(Br)c1)c1cc(Br)c(O)c(Br)c1 [3,3',5,5'-Tetrabromobisphenol A]: log solubility -5.635 (log10 mol/L); log vapor pressure -7.19 (log10 mmHg)
- CC(=O)O[BH-](OC(C)=O)OC(C)=O.[Na+] [Sodium triacetoxyborohydride]: logP (octanol/water) -2.88; log vapor pressure -4.369 (log10 mmHg)
- NCc1cccc(CN)c1 [1,3-Benzenedimethanamine]: logP (octanol/water) 0.18; log vapor pressure -1.523 (log10 mmHg)
- CCCCC[C@@H]1C(=O)CC[C@H]1C(=O)OC [Methyl (1R,2S)-3-oxo-2-pentylcyclopentanecarboxylate]: bp 283 °C; logP (octanol/water) 2.8; log solubility -2.572 (log10 mol/L); log vapor pressure -2.667 (log10 mmHg)
- Cc1ccc(N(CC(C)O)CC(C)O)cc1 (centres undefined) [2-Propanol, 1,1'-[(4-methylphenyl)imino]bis-]: melting point 112 °C; logP (octanol/water) 2.1; log vapor pressure -5.577 (log10 mmHg)
- CCCCN(C=O)CCCC [N,N-Dibutylformamide]: bp 244.3 °C; logP (octanol/water) 2; log vapor pressure -1.673 (log10 mmHg)
- CCC[C@H]1CC[C@H]([C@H]2CC[C@H](c3ccc(-c4cc(F)c(F)c(F)c4)c(F)c3)CC2)CC1: melting point 114.4 °C; log vapor pressure -6.907 (log10 mmHg)
- CCN(Cc1ccncc1)C(=O)C(CO)c1ccccc1 (centres undefined) [Tropicamide]: logP (octanol/water) 1.3; log solubility -2.88 (log10 mol/L)
- Cc1c(C)c2c(c(C)c1OC(=O)c1cccnc1)CCC(C)(CCCC(C)CCCC(C)CCCC(C)C)O2 (centres undefined): melting point 45 °C; bp 395 °C; log vapor pressure -7.881 (log10 mmHg)
- O=P1(Cc2ccccc2)OCC2(CO1)COP(=O)(Cc1ccccc1)OC2 (centres undefined): melting point 256 °C; log solubility -4.121 (log10 mol/L); log vapor pressure -7.213 (log10 mmHg)
- O=Cc1cc(Br)ccc1O [5-Bromosalicylaldehyde]: logP (octanol/water) 2.5; log solubility -3.303 (log10 mol/L)
- CN1CCCC(n2nc(Cc3ccc(Cl)cc3)c3ccccc3c2=O)CC1 (centres undefined) [Azelastine]: melting point 225 °C; logP (octanol/water) 4.9
- CN(/N=C/c1cc[n+](C)cc1)c1ccccc1.COS(=O)(=O)[O-]: logP (octanol/water) 0.02; log vapor pressure -9.698 (log10 mmHg)
- COc1cc(Br)c(CN(C=O)CCc2ccc(O)cc2)cc1O: melting point 162.3 °C; logP (octanol/water) 2.7; log solubility -5.047 (log10 mol/L); log vapor pressure -9.907 (log10 mmHg)
- COc1c(C)c2c(c(O)c1C/C=C(\C)CCC(=O)O)C(=O)OC2 [Mycophenolic acid]: logP (octanol/water) 2.28; log solubility -4.111 (log10 mol/L); log vapor pressure -6.495 (log10 mmHg)
- COc1cc(Br)c(C=O)cc1O [2-Bromo-5-hydroxy-4-methoxybenzaldehyde]: logP (octanol/water) 2.2; log solubility -3.274 (log10 mol/L); log vapor pressure -5.468 (log10 mmHg)
- C1N2CN3CN1CN(C2)C3 [Methenamine]: logP (octanol/water) -2.18; plasma fu 0.352; Clint 0 µL/min/10^6 cells
- CC(=O)OC(CC(C)C)CC(C)C [2,6-Dimethylheptan-4-yl acetate]: melting point -79.5 °C; log vapor pressure 0.312 (log10 mmHg)
- CCC(O)COC1CCCCC1C(C)(C)C (centres undefined) [2-Butanol, 1-[[2-(1,1-dimethylethyl)cyclohexyl]oxy]-]: melting point -28.5 °C; log solubility -3.699 (log10 mol/L); log vapor pressure -1.333 (log10 mmHg)
- CC(C)COc1ccc2ccccc2c1 [2-(2-Methylpropoxy)naphthalene]: logP (octanol/water) 5.1; log vapor pressure -2.949 (log10 mmHg)

The last 3 entries again:

{"smiles": "CC(=O)OC(CC(C)C)CC(C)C", "name": "2,6-Dimethylheptan-4-yl acetate", "melting point (°C)": "-79.5", "log vapor pressure (log10 mmHg)": "0.312"}
{"smiles": "CCC(O)COC1CCCCC1C(C)(C)C", "stereo": "centres undefined", "name": "2-Butanol, 1-[[2-(1,1-dimethylethyl)cyclohexyl]oxy]-", "melting point (°C)": "-28.5", "log solubility (log10 mol/L)": "-3.699", "log vapor pressure (log10 mmHg)": "-1.333"}
{"smiles": "CC(C)COc1ccc2ccccc2c1", "name": "2-(2-Methylpropoxy)naphthalene", "logP (octanol/water)": "5.1", "log vapor pressure (log10 mmHg)": "-2.949"}

Values as listed in the OPERA 2.9 repository of K. Mansouri.